Assay results taken from US20080105961A1, “Ligands of the Molecule Fit (Agt-121) and their Pharmaceutical Use” (priority 2004, published 2008).

Target: T1, FIT-NP (FIT N-terminal plus proline-rich region) (Homo sapiens, UniProt Q9BQI5)
T1 construct: expressed in transfected cells
T1 sequence (Q9BQI5 with tags, fused parts or gaps I33M/P40L/N43H/V56A/I186T/P191L/T195L/E211G/Q212H/I230V/T240A/N255T/I269V/G270A/P271T/S276A/V280A/L285P/N289S/A308T/K311T/T318A/S335T/T339A/P340S/N342I/A348T/L352P/P357S/T358A/DEL367-367/L371P/I397L/D402E/F403C/A409E/P432S/P434T/T437A/R454S/S455C/T456S): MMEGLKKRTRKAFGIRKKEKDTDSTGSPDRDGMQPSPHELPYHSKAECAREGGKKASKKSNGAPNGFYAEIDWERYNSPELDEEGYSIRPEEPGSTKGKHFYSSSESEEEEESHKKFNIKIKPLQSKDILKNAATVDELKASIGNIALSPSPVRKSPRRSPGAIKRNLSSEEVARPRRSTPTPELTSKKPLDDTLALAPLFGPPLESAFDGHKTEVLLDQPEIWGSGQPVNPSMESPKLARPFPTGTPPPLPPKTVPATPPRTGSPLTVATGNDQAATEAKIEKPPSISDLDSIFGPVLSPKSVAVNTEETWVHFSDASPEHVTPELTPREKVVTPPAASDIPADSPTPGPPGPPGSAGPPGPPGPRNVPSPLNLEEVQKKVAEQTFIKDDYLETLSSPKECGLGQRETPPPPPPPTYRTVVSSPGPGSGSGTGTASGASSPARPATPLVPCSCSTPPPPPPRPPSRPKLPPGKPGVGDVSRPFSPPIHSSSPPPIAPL
Assay: Yeast two-hybrid screen of human brain cDNA library, bait FIT-NP
Assay type: binding
Source text: To investigate the mechanism by which FIT regulates energy balance, neural proteins that interact with FIT were identified. In order to perform these experiments, two truncated fragments of FIT were constructed to be used as baits in a yeast two-hybrid screen of a human brain cDNA library: one bait consisting of the N-terminal region plus the central proline-rich region, and the other bait consisting of the central proline-rich region alone. The inventors utilised a yeast two-hybrid system which incorporates modifications by Chevray and Nathans (1992), and Vidal et al. (1996) to screen a human brain cDNA library. FIT fragments were PCR amplified, purified and then cloned into an appropriate vector. Sense oligonucleotides for FIT-NP (5′-[…]-3′: SEQ ID NO:72), and FIT-PR (5′-[…]-3′: SEQ ID NO:73), with Sal1 restriction enzyme sites underlined, were used in conjunction with a common antisense oligonucleotide (5′-[…]-3′: SEQ ID NO:74), with the Not1 restriction enzyme site underlined.
Human brain cDNA inserts were prepared and cloned into the expression vector according to manufacturer's instructions.

- Number of clones (bait FIT-NP, human brain cDNA library, clones listed highest to lowest interacting strength): 2
- strength of interaction with FIT (in yeast): slightly lesser strength
Substance: β-arrestin 2: FIT interacting protein isolated from a human brain cDNA library
